Our source for the IC50 values is US20220267298A1 (priority 2019, published 2022).

The pIC50 is −log10 of the IC50, conventionally taken in molar units.

The assay concerns the target T1, GRK2 (Homo sapiens, UniProt P25098).
T1 sequence (P25098 1-689): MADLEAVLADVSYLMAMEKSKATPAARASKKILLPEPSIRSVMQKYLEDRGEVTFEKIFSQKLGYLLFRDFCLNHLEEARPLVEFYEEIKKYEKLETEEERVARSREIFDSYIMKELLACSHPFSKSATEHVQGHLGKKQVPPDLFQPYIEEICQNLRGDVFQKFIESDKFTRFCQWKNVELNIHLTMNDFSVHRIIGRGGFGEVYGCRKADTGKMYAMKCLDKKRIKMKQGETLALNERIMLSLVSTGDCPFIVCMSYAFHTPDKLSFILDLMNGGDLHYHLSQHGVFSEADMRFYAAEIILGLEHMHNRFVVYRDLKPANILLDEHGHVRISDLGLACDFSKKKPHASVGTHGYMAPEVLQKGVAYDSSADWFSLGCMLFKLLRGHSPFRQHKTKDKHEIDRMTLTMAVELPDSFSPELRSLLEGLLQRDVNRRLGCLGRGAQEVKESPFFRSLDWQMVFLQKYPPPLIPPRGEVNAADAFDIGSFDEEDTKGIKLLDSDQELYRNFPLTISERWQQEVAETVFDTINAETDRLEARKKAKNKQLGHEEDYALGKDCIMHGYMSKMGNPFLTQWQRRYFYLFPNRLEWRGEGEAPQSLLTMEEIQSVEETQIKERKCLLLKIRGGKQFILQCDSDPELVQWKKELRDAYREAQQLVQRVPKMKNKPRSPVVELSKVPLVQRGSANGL
Conditions: read-out: GRK2 IC50; 10 nM GRK2; 10 uM ATP.

Molecules are shown by their SMILES. pIC50: −log10 of the molar value.

Consider `O=c1c2cc(-c3cn[nH]c3)c(F)cc2ncn1Cc1ccccc1` [Compound 69, 3-benzyl-7-fluoro-6-(1H-pyrazol-4-yl)quinazolin-4(3H)-one], for which the pIC50 was 6.56.

Take `COc1cc(Cn2cnc3ccc(-c4cn[nH]c4)cc3c2=O)ccc1F` [Compound 62, 3-[(4-Fluoro-3-methoxy-phenyl)methyl]-6-(1H-pyrazol-4-yl)quinazolin-4-one]: the negative-log IC50 (pIC50) was 7.74.
